# Laboratory results from PubChem BioAssay AID1224817 (Yan Lab, Georgia Cancer Center, Augusta University, 2016).
# The list shows a part of the results, in another mix than the full data. Active and inactive are the calls of the source.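 The calls were made as follows: active = log2 luciferase ratio at or below -0.5849, meaning signal at two thirds of solvent-only control or lower; inactive = the rest.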
# Experiment: inhibitors of EIF4E gene expression, primary screen, cell-based, HT1080, luciferase reporter (AID 1224817);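 also: luciferase reports endogenous eIF4E expression since it is co-expressed from the native EIF4E locus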
# Conditions: HT1080 EIF4E-luc2 knock-in reporter, 16 h, at 2.5 µM, hits give low values
row,SMILES,log2 luciferase activity ratio
1,NCCC(N)CSP(=O)(O)O (stereo not drawn),inactive: -0.0637
2,O=[As]c1ccc(S(=O)(=O)NCCO)cc1 (stereo not drawn),inactive: -0.225
3,[N-]=[N+]=NCC(N)=O,inactive: -0.257
4,NC(=O)Nc1cc([As](=O)(O)O)cc(I)c1O,inactive: 0.28
5,NS(=O)(=O)Cc1ccc([As](=O)(O)O)cc1,inactive: 0.0654
6,O=[As](O)(O)c1ccc([As](=O)(O)O)cc1,inactive: -0.112
7,CC(O)COc1ccc([As](=O)(O)O)cc1N (stereo not drawn),inactive: -0.0639
8,[N-]=[N+]=Nc1ccc([As](=O)(O)O)cc1,inactive: -0.338
9,CN1CCCC(OC(=O)C(c2ccccc2)c2ccccc2)C1 (stereo not drawn),inactive: -0.0697
10,O=[N+]([O-])c1ccc(C[As](=O)(O)O)cc1,inactive: -0.158
11,C(Cc1nn[nH]n1)c1nn[nH]n1,inactive: 0.115
12,O=C(CO)Nc1ccc([As](=O)(O)O)cc1,inactive: -0.261
13,O=C(O)C(O)c1ccc([As](=O)(O)O)cc1 (stereo not drawn),inactive: -0.0935
